# Test results published in US7041461B2 (H. Lundbeck A/S, priority 1998, dated 2006).
# The chains behind the UniProt entries cited, without tags or fusion partners. Where a name states a change or a piece, a line headed by the entry shows the natural chain unless it says otherwise.
# UniProt Q9EP86: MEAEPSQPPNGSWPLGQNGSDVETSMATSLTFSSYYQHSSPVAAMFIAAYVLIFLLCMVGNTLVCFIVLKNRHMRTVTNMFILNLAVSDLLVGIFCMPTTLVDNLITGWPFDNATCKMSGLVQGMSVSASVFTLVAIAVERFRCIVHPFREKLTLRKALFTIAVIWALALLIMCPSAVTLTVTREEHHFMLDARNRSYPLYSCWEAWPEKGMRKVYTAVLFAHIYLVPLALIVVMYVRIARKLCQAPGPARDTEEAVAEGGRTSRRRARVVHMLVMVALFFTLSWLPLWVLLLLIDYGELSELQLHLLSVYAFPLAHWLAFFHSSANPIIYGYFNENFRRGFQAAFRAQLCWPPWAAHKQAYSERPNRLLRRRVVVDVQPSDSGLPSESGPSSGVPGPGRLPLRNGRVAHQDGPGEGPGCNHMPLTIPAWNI
# Target: T1, cloned rat NPFF1 receptor (Rattus norvegicus, UniProt Q9EP86)
# T1 construct: expressed in transfected cells; host or cells: COS-7 cells, transient; membranes
# Test: Radioligand binding to cloned rat NPFF1 receptor, membranes of transiently transfected COS-7 cells
# Details: competition of [125I]D-Tyr-NPFF binding; transiently transfected COS-7 membranes
# Experimental: Transfected cells from culture flasks are scraped into 5 ml of 20 mM Tris-HCl, 5 mM EDTA, pH 7.5, and lysed by sonication. The cell lysates are centrifuged at 1000 rpm for 5 min. at 4° C., and the supernatant is centrifuged at 30,000× g for 20 min. at 4° C. […] Optimal membrane suspension dilutions, defined as the protein concentration required to bind less than 10% of the added radioligand, […], unlabeled compounds, and binding buffer to a final volume of 250 μl. In equilibrium saturation binding assays membrane preparations are incubated in the presence of increasing concentrations of [^3H]-labeled compound.
# Competition assay: 50 pM radioligand, 10–12 points. Binding reaction mixtures are incubated for 2 hr at 25° C., and the reaction stopped by filtration through a double layer of GF filters treated with 0.1% polyethyleneimine, using a cell harvester. Wash buffer: 50 mM Tris-HCl, 0.1% BSA. Radioactivity may be measured by scintillation counting and data are analyzed by a computerized non-linear regression program. Non-specific binding is defined as the amount of radioactivity remaining after incubation of membrane protein in the presence of 1 μM final concentration […]. Protein concentration may be measured by the Bradford method using Bio-Rad Reagent, with bovine serum albumin as a standard. […]
row,Substance,"pKi for cloned rat NPFF1 receptor binding in COS-7 cells, MEAN"
1,a-MSH,5.000
2,substance P,5.000
